{
  "source": "patent US8580321B2",
  "about": "“Method for reducing the effects of chemotherapy using flagellin related polypeptides” (priority 2003, dated 2013)",
  "molecules": {"B1": {"name": "GST-B′: GST-Linker-(402-450), SEQ ID NO: 28 (protein)", "chain": "MSPILGYWKIKGLVQPTRLLLEYLEEKYEEHLYERDEGDKWRNKKFELGLEFPNLPYYIDGDVKLTQSMAIIRYIADKHNMLGGCPKERAEISMLEGAVLDIRYGVSRIAYSKDFETLKVDFLSKLPEMLKMFEDRLCHKTYLNGDHVTHPDFMLYDALDVVLYMDPMCLDAFPKLVCFKKRIEAIPQIDKYLKSSKYIAWPLQGWQATFGGGDHPPKSDLVPRGSPGISGGGGGILDSMGTLINEDAAAAKKSTANPLASIDSALSKVDAVRSSLGAIQNRFDSAITNL", "modifications": "Salmonella dublin"}},
  "test_system": "NF-κB",
  "test": "EMSA of NF-κB translocation / DNA binding in A549 cells",
  "conditions": "1 μg/ml, 45 min, EMSA of whole cell extracts",
  "data": [
    {"molecule": "B1", "values": [
      {"measurement": "NF-κB Stimulation", "value": "No"}
    ]}
  ]
}
